Experiments:
Swiss-Weber mice = assay: Mouse hindquarter (muscle pouch) ectopic bone formation assay, BBP alone or with rhBMP-2; format: in vivo
Method: (§1) The osteogenic activity of material was tested using male Swiss-Weber mice aged 8 to 10 weeks were used (Taconic Farms, Germantown, N.Y.). […] The dried material was placed in a #5 gelatin capsule and sterilized by exposure to chloroform vapor. To conduct the assay, mice were anesthetized using 1% isoflurane delivered in oxygen at 2 l/min through a small animal anesthesia machine (VetEquip, Pleasanton, Calif.). Animals were affixed to a surgery board and the fur over the hindquarters shaved. The skin was cleaned with 70% ethanol and a midline incision made over the spine adjacent to the hindquarters. Blunt dissection with scissors was used to expose the quadriceps muscle on one side. A small pouch was made in the muscle using the point of scissors and the #5 capsule containing the test material was inserted into the pouch. The skin was then closed with three 11 mm Michel surgical clips and the animal returned to its cage for monitoring.
(§2) After 21 days the animals were killed and the hindquarter removed. Radiological examination of the specimens was accomplished using a small parts X-Ray cabinet (Faxitron, Wheeling, Ill.). For quantization of bone formation, bone area and the bone mineral content (BMC) of an area of interest encompassing the site of ectopic bone formation was determined using a PIXImus2 small animal densitometer (GE Lunar, Madison, Wis.). Specimens were then placed in buffered formalin and submitted for routine processing for histological examination.
Samples of 5 μg of rhBMP-2 were used in more extensive subsequent studies because that amount consistently produced an amount of ectopic bone that was neither too large nor too small for reliable analysis.

mice = assay: Hindquarter ectopic bone formation assay with human BBP plus rhBMP-2; format: in vivo; conditions: 5 μg rhBMP-2 alone or plus 0.05 mg hBBP, 4 weeks, DEXA
Method: as §1
as §2, with “Specimens were then placed in buffered formalin and submitted for routine processing for histological examination.” left out

[1] = In vivo retention of [125I]-labeled rhBMP-2 in absorbable collagen sponge implants with or without BBP; parameters: species or system Sprague-Dawley rats; conditions: ACS implant in rat abdominal musculature, vehicle or 0.5 mg BBP, mean ± S.E., n = 4
Method: Time to fusion was evaluated using plain radiographs. Fusion rate was determined by plain radiographs, manual palpation, and microcomputerized tomography (micro-CT). Histology was used to assess osseous characteristics of the fusion mass.
After approximately 10 minutes of incubation at room temperature the preparation was implanted by inserting it into a blind pouch created by gentle blunt dissection in the abdominal musculature. There were four samples for each treatment/time point (2 samples per rat and 2 rats per time point). The tracer retention was measured at 1, 3, and 7 days post-implantation by recovering the implants employing using a gamma-counter. Aliquots of the application fluids were counted at the time of implantation to determine total cpm at to. The percent of applied rhBMP-2 retained was calculated at each time point by dividing the explant-associated cpm with the cpm implanted at to.

[2] = BBP 0 μg, 5 μg of rhBMP-2, densitometry, 21 days, mean SE

## rhBMP-2: recombinant human bone morphogenetic protein 2
Swiss-Weber mice; 9 days after implantation, 5 μg of rhBMP-2 alone or plus 500 μg of BBP
  histological sections of mouse hind quarters: earlier stages of inflammation and mesodermal cell proliferation
Swiss-Weber mice; [2]
  Bone Area: 0.089 ± 0.0336 cm^2
  Bone Mineral Content: 0.00189 ± 0.00084 g
mice
  Mean BMC content: 0.00775 g
[1]
  Percent BMP-2 Retained, Day 3: 31.9 ± 2.07%
